Values quoted from earlier work in patent US11866449B2, “Crystalline polymorphs of a muscarinic acetylcholine receptor agonist” (NSC Therapeutics GmbH, priority 2016, dated 2024).

Sequences of proteins named here, by UniProt entry; tags and fusion partners are left off. A change or cut given only in a name is not applied to a line headed by its entry.
UniProt P11229: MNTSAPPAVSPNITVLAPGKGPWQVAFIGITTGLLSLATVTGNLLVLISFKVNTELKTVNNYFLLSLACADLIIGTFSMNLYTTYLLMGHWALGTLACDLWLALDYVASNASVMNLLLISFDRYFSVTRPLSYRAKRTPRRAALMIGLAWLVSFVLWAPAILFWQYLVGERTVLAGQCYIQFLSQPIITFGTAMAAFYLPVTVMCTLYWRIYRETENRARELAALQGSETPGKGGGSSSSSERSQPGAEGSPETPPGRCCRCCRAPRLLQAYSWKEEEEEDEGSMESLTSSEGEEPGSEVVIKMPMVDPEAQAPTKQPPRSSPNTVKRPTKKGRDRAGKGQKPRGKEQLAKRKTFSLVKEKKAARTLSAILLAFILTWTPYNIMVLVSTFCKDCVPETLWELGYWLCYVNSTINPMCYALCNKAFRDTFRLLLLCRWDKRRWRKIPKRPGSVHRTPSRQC

Target: M1 muscarinic receptor (Homo sapiens, UniProt P11229)
Conditions: orthosteric muscarinic agonist; background; cited from earlier work

## CCCCCCOc1nsnc1C1=CCCN(C)C1 [Xanomeline]
  Muscarinic receptor subtype selectivity: modest selectivity for M1 and M4
